The list shows a part of the results, in another mix than the full data. Inconclusive results are not listed. Active and inactive are the calls of the source. The calls were made as follows, unless noted: active = hit-call score of the fitted dose curve at least 0.9, where 1 is the maximum; inactive = score below 0.9.
The compounds below were run against Steroid hormone receptor ERR1 (Homo sapiens) (UniProt P11474) (assay: ATG_ERRa_TRANS: Attagene TRANS-FACTORIAL HepG2 Assay for human Estrogen-Related Receptor alpha (ERRa) (AID 2282971; active = hit-call score of the fitted dose curve at least 0.9, where 1 is the maximum)). Details: HepG2 Attagene TRANS reporter, ERRa transactivation.
Method in brief: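 HepG2 cells were transiently transfected with multiple GAL4-UAS reporter units, then dosed with compound for 24 h. Total RNA was reverse-transcribed, reporter cDNA PCR-amplified and fluorescently labelled, and fragments resolved by capillary electrophoresis; induction was compared with DMSO.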

Chains of the proteins cited; added tags and fusions are not shown. Lines headed by an entry give the natural chain unless they say otherwise; changes in a name come on top.
UniProt P11474: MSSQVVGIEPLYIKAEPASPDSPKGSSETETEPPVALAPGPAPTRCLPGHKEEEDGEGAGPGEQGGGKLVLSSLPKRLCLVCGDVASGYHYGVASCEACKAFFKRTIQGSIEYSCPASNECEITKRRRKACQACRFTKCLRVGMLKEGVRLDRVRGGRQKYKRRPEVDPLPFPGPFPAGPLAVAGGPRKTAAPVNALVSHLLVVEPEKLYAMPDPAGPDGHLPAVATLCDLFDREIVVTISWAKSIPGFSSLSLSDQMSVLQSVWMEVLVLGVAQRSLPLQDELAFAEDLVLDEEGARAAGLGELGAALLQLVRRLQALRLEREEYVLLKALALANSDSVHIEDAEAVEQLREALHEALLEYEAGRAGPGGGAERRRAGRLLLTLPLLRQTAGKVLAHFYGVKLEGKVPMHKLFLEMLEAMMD
UniProt P17861: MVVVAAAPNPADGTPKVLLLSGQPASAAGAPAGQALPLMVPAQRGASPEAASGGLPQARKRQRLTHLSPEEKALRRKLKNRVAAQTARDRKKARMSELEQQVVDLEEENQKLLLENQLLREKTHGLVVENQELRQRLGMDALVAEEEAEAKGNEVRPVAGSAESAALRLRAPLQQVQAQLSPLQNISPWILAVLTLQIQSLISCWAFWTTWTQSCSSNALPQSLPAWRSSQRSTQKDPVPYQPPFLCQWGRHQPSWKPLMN

Compound	outcome
O=C1C2CC=CCC2C(=O)N1SC(Cl)(Cl)C(Cl)Cl (stereo unspecified)	inactive
CC(C)OP(=S)(OC(C)C)SCCNS(=O)(=O)c1ccccc1	inactive
O=C(Cl)Oc1ccccc1	inactive
O=C(Cl)OCCOC(=O)Cl	inactive
O=[p+]1oc2ccccc2c2ccccc21 (stereo unspecified)	inactive

Each compound was assayed against X-box-binding protein 1 (Homo sapiens) (UniProt P17861) (assay: ATG_Xbp1_CIS: Attagene CIS-FACTORIAL HepG2 Assay for human X-box Binding Protein 1 (XBP1) (AID 2282972)). Details: HepG2 XBP1 cis-element reporter, Attagene multiplex; actives raise or lower the signal.
Method in brief: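 HepG2, transient MRTU transfection (cis-promoter driven), 24 h compound exposure. Total RNA → oligo(dT) RT → PCR → 6-FAM labeling → HpaI cut → CE. Bidirectional fit vs DMSO.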

Compound	AC50	outcome
Cc1cc([N+](=O)[O-])cc([N+](=O)[O-])c1O	active: 67.4 µM	
CCCCOP(OCCCC)OCCCC		inactive
O=P(Cl)(Oc1ccccc1)Oc1ccccc1		inactive
ClP(Cl)c1ccccc1		inactive
O=C1C2CC=CCC2C(=O)N1SC(Cl)(Cl)C(Cl)Cl (stereo unspecified)		inactive
N#CSc1ccc([N+](=O)[O-])cc1[N+](=O)[O-]		inactive
CC(C)OP(=S)(OC(C)C)SCCNS(=O)(=O)c1ccccc1		inactive
O=[P+](Oc1ccccc1)Oc1ccccc1		inactive
CCCCC(CC)CO[P+](=O)OCC(CC)CCCC (stereo unspecified)		inactive
CC(C)CCCCCCCOP(OCCCCCCCC(C)C)Oc1ccccc1		inactive
O=C(Cl)Oc1ccccc1		inactive
CN(C(=O)Cc1cccc2occc12)[C@H]1CC[C@@]2(CCCO2)C[C@@H]1N1CCCC1		inactive
O=C(Cl)OCCOC(=O)Cl		inactive
CCCCO[P+](=O)OCCCC		inactive
O=[As]c1ccccc1 (stereo unspecified)	active: 0.334 µM	
O=[p+]1oc2ccccc2c2ccccc21 (stereo unspecified)		inactive
